The data set is described as follows: Ultracentrifugation of hydrophobic pDNA complexes on sucrose gradient, fraction fluorescence (Example 61). The conditions noted are these: sucrose gradient 18-54%, 35 krpm, 20 hr. The data set is classed as physicochemical. On the procedure:
To H2O (1000 μL) was added either polymer or detergent and vortexed. To the resulting solution was added RhDNA or Rh-DNA-NC12-PyrDet (50 μg) and vortexed. The samples were loaded into tubes prepared with a sucrose gradient (18-54%, 10 mM Hepes, 1 mM EDTA, 9.5 mL) and trizamide as the base (cushion). The samples were centrifugated at 35 krpm at 4C. under vacuum for 20 hr. Each sample was separated into 750 μL fractions, fractionating from the bottom of the tube to the top. To each fraction was added NaCl (150 μL, of 5 M, 1 M final) and Triton (37.5 μL of 20%, 1% final) with vortexing. The fractions were analyzed on a spectrofluorometer (Varian Cary Eclipse) at the rhodamine (Ex 555 nm and Em 585 nm), FITC (Ex 495 nm and Em 530 nm), and pyrene (Ex 340nm and Em 377 nm) channels.

For the substance “pyrenedodecanoic-3-trimethylaminopropylamine carboxamide iodide [pyrene detergent]”, the “Pyrene fluorescence of fractions after ultracentrifugation” value is given as “remains in the top fractions”.

For the origin of these results see patent publication US20030235916A1, “Novel methods for the delivery of polynucleotides to cells” (priority 2002, published 2003).
